Results on one substance are retold here after patent publication US20260191900A1, “Biofilm Treatment” (Phytoceutical Limited, priority 2022, published 2026).

The conditions of the data set: DLS at 20° C.

With “tocopheryl polyethylene glycol succinate [TPGS]”, the “average (mean) particle size (diameter)” value worked out at 8.82 nm and the “polydispersity index (PI)” value is 0.047.
